Our source for the Ki values is patent publication EP2934149B1, “C6-AZASPIRO IMINOTHIADIAZINE DIOXIDES AS BACE INHIBITORS” (Merck Sharp & Dohme Corp., priority 2012, dated 2014).

Chains of the proteins cited; added tags and fusions are not shown. Residues count along the entry.
UniProt P56817, 75-416 limits assumed: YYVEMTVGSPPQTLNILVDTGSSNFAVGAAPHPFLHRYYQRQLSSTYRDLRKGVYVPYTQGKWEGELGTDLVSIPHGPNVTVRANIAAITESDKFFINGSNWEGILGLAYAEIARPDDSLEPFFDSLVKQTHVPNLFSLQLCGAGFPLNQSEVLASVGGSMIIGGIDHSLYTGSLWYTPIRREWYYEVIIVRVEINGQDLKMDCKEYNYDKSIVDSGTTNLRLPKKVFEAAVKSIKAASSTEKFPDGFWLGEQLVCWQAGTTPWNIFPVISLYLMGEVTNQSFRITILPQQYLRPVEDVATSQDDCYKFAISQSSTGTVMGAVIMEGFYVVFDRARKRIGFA

The target in test [1] is T1, purified human autoBACE-2 (Homo sapiens, UniProt Q9Y5Z0).
T1 sequence (Q9Y5Z0 63-473 limits assumed): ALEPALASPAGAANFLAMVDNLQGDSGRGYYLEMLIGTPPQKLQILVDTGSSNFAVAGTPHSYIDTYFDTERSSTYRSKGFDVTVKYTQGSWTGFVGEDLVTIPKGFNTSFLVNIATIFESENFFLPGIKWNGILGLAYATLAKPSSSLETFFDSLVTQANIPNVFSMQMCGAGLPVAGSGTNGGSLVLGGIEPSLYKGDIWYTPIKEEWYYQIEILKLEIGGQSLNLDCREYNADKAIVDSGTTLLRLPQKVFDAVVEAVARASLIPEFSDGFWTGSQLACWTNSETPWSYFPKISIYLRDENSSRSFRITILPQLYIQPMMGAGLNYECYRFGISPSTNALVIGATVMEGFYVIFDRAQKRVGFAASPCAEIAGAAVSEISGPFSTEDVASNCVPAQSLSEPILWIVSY
Briefly: BACE-2 Assay (BACE-HTRF assay). The conditions noted are these: Ki calculated from IC50 using the Cheng-Prusoff equation; QSY7-EISEVNLDAEFC-Eu-amide substrate 200 nM final, pH 5.0, 30°C; read-out: BACE2 Ki. Format: biochemical. As for the experimental part:
Inhibitor IC50's at purified human autoBACE-2 are determined in a time-resolved endpoint proteolysis assay that measures hydrolysis of the QSY7-[…]-Eu-amide FRET peptide substrate (BACE-HTRF assay). […] Inhibitor compounds, prepared at 3x the desired final concentration in 1x BACE assay buffer (20 mM sodium acetate pH 5.0,10% glycerol, 0.1% Brij-35) supplemented with 7.5% DMSO are pre-incubated with an equal volume of autoBACE-2 enzyme diluted in 1x BACE assay buffer (final enzyme concentration 1 nM) in black 384-well NUNC plates for 30 minutes at 30°C. […] DMSO is present at 5% final concentration in the assay. Following laser excitation of sample wells at 320 nm, the fluorescence signal at 620 nm is collected for 400 ms following a 50 µs delay on a RUBYstar HTRF plate reader (BMG Labtechnologies). Raw RFU data is normalized to maximum (1.0 nM BACE/DMSO) and minimum (no enzyme/DMSO) RFU values. […] The Ki values are calculated from the IC50 using the Cheng-Prusoff equation.

Test [2] has as its target soluble human BACE1 catalytic domain (Homo sapiens, UniProt P56817). Description: BACE1 HTRF FRET Assay. Format: biochemical. As to conditions: Ki calculated from IC50 using the Cheng-Prusoff equation; QSY7-APPswe-Eu substrate 200 nM final, pH 5.0, 30° C. As to the method: A homogeneous time-resolved FRET assay can be used to determine IC50 values for inhibitors of the soluble human BACE1 catalytic domain. […] This substrate contains an N-terminal QSY7 moiety that serves as a quencher of the C-terminal Europium fluorophore (620nm Em). […] Inhibition of BACE1 cleavage of the QSY7-APP^swe-Eu substrate by inhibitors is manifested as a suppression of 620 nm fluorescence. […] The reactions are incubated at 30° C for 1.5 hours. The 620nm fluorescence is then read on a Rubystar HTRF plate reader (BMG Labtechnologies) using a 50 millisecond delay followed by a 400 millisecond acquisition time window. Inhibitor IC50 values are derived from non-linear regression analysis of concentration response curves.

By Ki is commonly meant a dissociation constant, usually derived from enzyme kinetics or from competition with a known ligand. In the case of `CN1C(=N)N[C@](C)(c2cc(NC(=O)c3ccc(F)cn3)ccc2F)[C@@]2(CCN(CC3CCOC3)C2)S1(=O)=O` (some centres unmarked) [Example 43], the Ki in test [1] was 72 nM; in test [2], 119 nM.
